Measurements taken from ChEMBL document CHEMBL1156775 (J Med Chem, 2010).

Assays:
Homo sapiens [1] = organism: Homo sapiens; assay: Selectivity ratio of Ki for human delta opioid receptor to Ki for human mu opioid receptor
Homo sapiens [2] = organism: Homo sapiens; assay: Selectivity ratio of Ki for human kappa opioid receptor to Ki for human mu opioid receptor

**Q.** How did the Ratio Ki (Homo sapiens [1]) turn out when Oc1ccc2c(c1)[C@@]13CCCC[C@H]1[C@@H](C2)N(CC1CCC1)CC3 was run?
**A.** 25

**Q.** What about the Ratio Ki (Homo sapiens [2]) of the same molecule?
**A.** 0.3
